This assay concerns the target 5-hydroxytryptamine receptor 1A (Homo sapiens, UniProt P08908). Briefly: biochemical. The format is cell-based, HeLa.

Sequences of proteins named here, by UniProt entry; tags and fusion partners are left off.
UniProt P08908, whole entry: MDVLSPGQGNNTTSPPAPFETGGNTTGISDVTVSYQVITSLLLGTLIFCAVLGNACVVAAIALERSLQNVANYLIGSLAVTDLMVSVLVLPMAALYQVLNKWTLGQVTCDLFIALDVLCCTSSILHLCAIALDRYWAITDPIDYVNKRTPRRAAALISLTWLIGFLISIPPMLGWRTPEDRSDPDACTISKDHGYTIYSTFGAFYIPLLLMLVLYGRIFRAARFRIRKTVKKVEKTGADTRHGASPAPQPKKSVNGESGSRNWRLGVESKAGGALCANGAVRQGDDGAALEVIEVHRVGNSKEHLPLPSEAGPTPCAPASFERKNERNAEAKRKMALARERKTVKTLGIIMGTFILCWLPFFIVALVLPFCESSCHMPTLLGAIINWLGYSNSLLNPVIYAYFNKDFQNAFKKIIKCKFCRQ

For orientation: Ki means the dissociation constant of the complex between target and ligand, obtained from inhibition or displacement. A higher Ki goes with weaker binding. In the case of `O=C1CCc2ccc(OCCCCN3CCN(c4ccc(F)c5ccccc45)CC3)nc2N1`, the inhibition constant (Ki) was 2 nM.

Values taken from ChEMBL document CHEMBL1773056 (Bioorg Med Chem Lett, 2011).
